In PubChem BioAssay AID588473 (Sanford-Burnham Center for Chemical Genomics, 2011):
The list shows a part of the results, in another mix than the full data. Calls of active or inactive are those of the source.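 Rule for the calls: active = activation of at least 50%, plus an integration ratio under a set limit after plate pattern correction; inactive = the rest.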

What follows are compounds tested on CRF-binding protein / CRF receptor 2 complex (human) (assay: agonists of CRF-BP/CRF-R2 complex, primary screen, cell-based, HEK293, calcium dye fluorescence, uHTS (AID 588473;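 note: plate controls were neutral control wells without compound for no effect and CRF at EC100 for full effect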)). Conditions: calcium dye fluorescence (FLIPR), at 13.2 µM, active compounds read high, percent of saturating CRF peptide response.

**Q.** Which activation does the source give for `COc1ccccc1OP(C)(=O)Nc1cc(Cl)ccc1C` (stereo unspecified) here?
**A.** inactive: -1.26%

**Q.** `Cc1ccc(NP(C)(=O)Oc2ccccc2)c(C)c1` (stereo unspecified) was tested. Which activation did it give?
**A.** inactive: -0.07%

**Q.** How did the activation turn out when `COc1ccccc1OP(C)(=O)Nc1ccc(C)cc1` (stereo unspecified) was run?
**A.** inactive: -2.27%

**Q.** `CCOC(=O)c1ccc(NP(C)(=O)Oc2ccccc2)cc1` (stereo unspecified) was tested. Which activation did it give?
**A.** inactive: -1.75%

**Q.** For `CP(=O)(Nc1ccccc1Br)Oc1ccccc1` (stereo unspecified), which activation is on record?
**A.** inactive: 1.35%

**Q.** How did the activation turn out when `COc1ccccc1OP(C)(=O)Nc1ccccc1` (stereo unspecified) was run?
**A.** inactive: 0.11%

**Q.** `CP(=S)(Nn1cnnc1)Oc1ccccc1` (stereo unspecified) was tested. Which activation did it give?
**A.** inactive: 5.18%

**Q.** Which activation does the source give for `Cc1cc(C)cc(OP(C)(=O)Nc2ccc(SC(F)(F)F)cc2)c1` (stereo unspecified) here?
**A.** inactive: 5.46%

**Q.** With `CP(=O)(NC(=O)Nc1ccccc1)Oc1ccccc1` (stereo unspecified) as the compound, how does the activation read?
**A.** inactive: -1.95%

**Q.** How did the activation turn out when `CCc1ccc(OP(C)(=O)N2CCN(c3ccc([N+](=O)[O-])cc3)CC2)cc1` (stereo unspecified) was run?
**A.** inactive: -0.54%

**Q.** `CP(=O)(Oc1ccccc1)OC(c1ccccc1)C(F)(F)F` (stereo unspecified) was tested. Which activation did it give?
**A.** inactive: 0.54%

**Q.** How did the activation turn out when `Cc1ccc(Nc2c([N+](=O)[O-])cc([N+](=O)[O-])cc2[N+](=O)[O-])cc1` was run?
**A.** inactive: 18%

**Q.** For `Cc1cccc(C)c1OP(C)(=O)Nc1ccc(SC(F)(F)F)cc1` (stereo unspecified), which activation is on record?
**A.** inactive: -0.85%

**Q.** For `CP(=O)(Nc1ccc(SC(F)(F)F)cc1)Oc1ccc(Cl)cc1` (stereo unspecified), which activation is on record?
**A.** inactive: 1.05%

**Q.** `CP(=O)(Nc1ccccn1)Oc1ccc(Cl)cc1` (stereo unspecified) was tested. Which activation did it give?
**A.** inactive: -0.97%

**Q.** `CCOC(=O)c1ccc(NP(C)(=O)Oc2ccc(OC)cc2)cc1` (stereo unspecified) was tested. Which activation did it give?
**A.** inactive: -2.75%

**Q.** With `O=[N+]([O-])c1cc([N+](=O)[O-])c(O)c([N+](=O)[O-])c1.c1ccc(Oc2ccncc2)cc1` as the compound, how does the activation read?
**A.** inactive: -2.32%

**Q.** With `CCOP(C)(=S)SCC(=O)NC(C)C(=O)O` (stereo unspecified) as the compound, how does the activation read?
**A.** inactive: 3.31%

**Q.** `O=[N+]([O-])c1cc([N+](=O)[O-])c(-n2nnc3ccccc32)c([N+](=O)[O-])c1` was tested. Which activation did it give?
**A.** inactive: 1.14%

**Q.** With `Cc1nc2ccc3ccccc3c2s1.O=[N+]([O-])c1cc([N+](=O)[O-])c(O)c([N+](=O)[O-])c1` as the compound, how does the activation read?
**A.** inactive: -0.2%

**Q.** With `O=[N+]([O-])c1cc([N+](=O)[O-])c(-c2cnn(-c3ccccc3)c2)c([N+](=O)[O-])c1` as the compound, how does the activation read?
**A.** inactive: -0.68%

**Q.** For `CCOC(=O)C(CC)C1=NC(C)(C)Cc2ccccc21.O=[N+]([O-])c1cc([N+](=O)[O-])c(O)c([N+](=O)[O-])c1` (stereo unspecified), which activation is on record?
**A.** inactive: -1.21%

**Q.** With `CC1=C2N=C(C=C3N=C(C(C)=C4[N-][C@@](C)([C@@H]5N=C1[C@](C)(CCC(=O)NC[C@@H](C)OP(=O)([O-])O[C@H]1[C@@H](O)[C@@H](n6cnc7cc(C)c(C)cc76)O[C@@H]1CO)[C@H]5CC(N)=O)[C@@](C)(CC(N)=O)[C@@H]4CCC(N)=O)[C@@](C)(CC(N)=O)[C@@H]3CCC(N)=O)C(C)(C)[C@@H]2CCC(N)=O.[C-]#N.[Co+3]` as the compound, how does the activation read?
**A.** inactive: -1.27%

**Q.** With `O=[N+]([O-])c1cc([N+](=O)[O-])c(Nc2nnnn2CCO)c([N+](=O)[O-])c1` as the compound, how does the activation read?
**A.** inactive: -0.65%

**Q.** How did the activation turn out when `CCCOc1ccc(NP(C)(=O)Oc2ccc(Cl)cc2)cc1` (stereo unspecified) was run?
**A.** inactive: 0.15%

**Q.** Which activation does the source give for `CP(=O)(Nc1ccc(SC(F)(F)F)cc1)Oc1ccccc1` (stereo unspecified) here?
**A.** inactive: -0.11%

**Q.** How did the activation turn out when `COc1ccccc1OP(C)(=O)Nc1c(C)cccc1C` (stereo unspecified) was run?
**A.** inactive: -0.01%

**Q.** Which activation does the source give for `CN1CCCCC1COC(=O)C1(O)c2ccccc2CCc2ccccc21` (stereo unspecified) here?
**A.** inactive: 10.8%

**Q.** `O=C(O)c1cccc(Nc2c([N+](=O)[O-])cc([N+](=O)[O-])cc2[N+](=O)[O-])c1` was tested. Which activation did it give?
**A.** inactive: -0.76%

**Q.** For `CC1=NCCc2c1[nH]c1ccccc21.O=[N+]([O-])c1cc([N+](=O)[O-])c(O)c([N+](=O)[O-])c1`, which activation is on record?
**A.** inactive: 7.44%

**Q.** `CCOC(=O)c1ccc(NP(C)(=O)Oc2cc(C)cc(C)c2)cc1` (stereo unspecified) was tested. Which activation did it give?
**A.** inactive: -0.61%

**Q.** Which activation does the source give for `Cc1cc(C)cc(OP(C)(=O)Nc2ccc(C)cc2C)c1` (stereo unspecified) here?
**A.** inactive: -0.22%

**Q.** `COc1ccccc1OP(C)(=O)Nc1cccc(Br)c1` (stereo unspecified) was tested. Which activation did it give?
**A.** active: 59.3%

**Q.** `Cc1ccc(C)c(NP(C)(=O)Oc2ccccc2)c1` (stereo unspecified) was tested. Which activation did it give?
**A.** inactive: -1.35%

**Q.** With `Cc1cc(C)cc(OP(C)(=O)Nc2ccccn2)c1` (stereo unspecified) as the compound, how does the activation read?
**A.** inactive: -0.33%

**Q.** `CP(=O)(Nc1cccc(Br)c1)Oc1ccccc1` (stereo unspecified) was tested. Which activation did it give?
**A.** inactive: 0.26%
